Measured values from patent US20090286772A1.

Chains of the proteins cited; added tags and fusions are not shown.
UniProt O14684, whole entry: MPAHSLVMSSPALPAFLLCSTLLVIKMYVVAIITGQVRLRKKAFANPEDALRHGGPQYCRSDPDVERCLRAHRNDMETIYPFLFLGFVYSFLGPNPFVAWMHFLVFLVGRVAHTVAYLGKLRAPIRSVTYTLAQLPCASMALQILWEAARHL

Biological target: human mPGES-1 (Homo sapiens, UniProt O14684)
Assay: Microsomal prostaglandin E synthase assay (PGE2 by EIA)
Details: read-out: h-CHO IC50 (inhibition of PGE2 synthesis); microsomes from CHO-K1 cells transfected with human mPGES-1; 1 μM PGH2; average of at least n=3
Method: Compounds are tested as inhibitors of prostaglandin E synthase activity in microsomal prostaglandin e synthases, whole cell and in vivo assays. These assays measure prostaglandin E2 (PGE2) synthesis using either Enzymatic Immunoassay (EIA) or mass spectrometry. Cells used for microsomal preparation are CHO-K1 cells transiently transfected with plasmids encoding the human mPGES-1 cDNA. Cells used for cell-based experiments are human A549 (which express human mPGES-1). Guinea pigs are used to test the activity of selected compounds in vivo. In all these assays, 100% activity is defined as the PGE2 production in vehicle-treated samples. IC50 and ED50 represent the concentration or dose of inhibitor required to inhibit PGE2 synthesis by 50% as compared to the uninhibited control.
Prostaglandin E synthase microsomal fractions are prepared from CHO-K1 cells transiently transfected with plasmid encoding the human mPGES-1 cDNA. Microsomes are then prepared and the PGES assay begins with the incubation of 5 μg/ml microsomal PGES-1 with compound or DMSO (final 1%) for 20-30 minutes at room temperature. The enzyme reactions are performed in 200 mM KPi pH 7.0, 2 mM EDTA and 2.5 mM GSH-reduced form. The enzymatic reaction is then initiated by the addition of 1 μM final PGH2 substrate prepared in isopropanol (3.5% final in assay well) and incubated at room temperature for 30 seconds. The reaction is terminated by the addition of SnCl2 in 1N HCl (1 mg/ml final). Measurement of PGE2 production in the enzyme reaction aliquots is done by EIA using a standard commercially available kit (Cat #: 901-001 from Assay Designs).
The potency is expressed as IC50 and the value indicated is an average of at least n=3.

| Structure (SMILES) | IC50 [µM] |
| --- | --- |
| OC(c1ccc2c(c1)c1cc(Sc3ccncc3)ccc1c1nc(-c3c(F)cccc3Cl)[nH]c21)(C(F)(F)F)C(F)(F)F | 0.009 |
| OC(c1ccc2c(c1)c1cc(-c3ccc(-c4ccccc4)c(F)c3)ccc1c1nc(-c3c(F)cccc3Cl)[nH]c21)(C(F)(F)F)C(F)(F)F | 0.026 |
| Brc1cncc(Br)c1-c1nc2c3ccccc3c3ccccc3c2[nH]1 | 0.077 |
| CC(=NO)c1ccc2c(c1)c1cc(Cl)ccc1c1nc(-c3c(Cl)cccc3Cl)[nH]c21 | 0.0085 |
| COC(=O)CCC#Cc1ccc2c(c1)c1cc(Br)ccc1c1nc(-c3c(F)cccc3Cl)[nH]c21 | 0.0017 |
| Fc1cccc(C(F)(F)F)c1-c1nc2c3ccc(Br)cc3c3cc(Br)ccc3c2[nH]1 | 0.0057 |
| Clc1ccc2c(c1)c1cc(Br)ccc1c1[nH]c(-c3c(Cl)cccc3Cl)nc21 | 0.0039 |
| Fc1cccc(Cl)c1-c1nc2c3ccc(-c4cccnc4)cc3c3cc(-c4cccnc4)ccc3c2[nH]1 | 0.033 |
| CSc1ccc(C)c(-c2nc3c4ccccc4c4ccccc4c3[nH]2)c1 | 0.551 |
| Cc1ccccc1-c1nc2c3ccccc3c3ccccc3c2[nH]1 | 0.131 |
| Brc1ccccc1-c1nc2c3ccccc3c3ccccc3c2[nH]1 | 0.05 |
| CC(C)(O)c1ccc2c(c1)c1cc(Br)ccc1c1nc(-c3c(Br)cccc3Br)[nH]c21 | 0.0055 |
| Fc1ccc(-c2nc3c4ccccc4c4ccccc4c3[nH]2)c(C(F)(F)F)c1 | 0.233 |
